Earlier results as cited in paper PMC8859281.

By UniProt entry, the sequences of proteins in these tests, tags left out. Where a name states a change or a piece, a line headed by the entry shows the natural chain unless it says otherwise.
UniProt P47901: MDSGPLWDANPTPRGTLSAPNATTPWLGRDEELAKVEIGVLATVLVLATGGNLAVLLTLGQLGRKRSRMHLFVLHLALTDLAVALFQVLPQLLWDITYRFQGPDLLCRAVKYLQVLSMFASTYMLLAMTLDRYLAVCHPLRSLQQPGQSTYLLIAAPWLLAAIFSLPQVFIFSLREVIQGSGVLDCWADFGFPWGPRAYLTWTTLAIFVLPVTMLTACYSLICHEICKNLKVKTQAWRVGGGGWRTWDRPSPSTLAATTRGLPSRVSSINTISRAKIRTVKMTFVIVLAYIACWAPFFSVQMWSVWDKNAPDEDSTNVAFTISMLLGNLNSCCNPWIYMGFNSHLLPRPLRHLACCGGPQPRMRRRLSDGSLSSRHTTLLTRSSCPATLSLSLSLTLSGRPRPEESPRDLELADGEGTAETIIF
UniProt P37288, whole entry: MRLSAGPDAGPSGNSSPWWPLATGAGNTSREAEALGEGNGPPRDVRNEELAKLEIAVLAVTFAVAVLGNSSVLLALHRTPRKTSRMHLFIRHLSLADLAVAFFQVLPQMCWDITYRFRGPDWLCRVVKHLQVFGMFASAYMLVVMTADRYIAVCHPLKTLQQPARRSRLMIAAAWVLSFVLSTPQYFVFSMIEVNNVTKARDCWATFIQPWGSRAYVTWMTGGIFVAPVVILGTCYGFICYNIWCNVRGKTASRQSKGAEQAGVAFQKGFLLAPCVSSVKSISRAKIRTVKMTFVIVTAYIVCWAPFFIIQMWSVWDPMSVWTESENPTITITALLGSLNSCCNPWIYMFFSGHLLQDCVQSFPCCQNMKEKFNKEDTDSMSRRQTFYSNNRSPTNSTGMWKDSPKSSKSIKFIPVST
UniProt P30559: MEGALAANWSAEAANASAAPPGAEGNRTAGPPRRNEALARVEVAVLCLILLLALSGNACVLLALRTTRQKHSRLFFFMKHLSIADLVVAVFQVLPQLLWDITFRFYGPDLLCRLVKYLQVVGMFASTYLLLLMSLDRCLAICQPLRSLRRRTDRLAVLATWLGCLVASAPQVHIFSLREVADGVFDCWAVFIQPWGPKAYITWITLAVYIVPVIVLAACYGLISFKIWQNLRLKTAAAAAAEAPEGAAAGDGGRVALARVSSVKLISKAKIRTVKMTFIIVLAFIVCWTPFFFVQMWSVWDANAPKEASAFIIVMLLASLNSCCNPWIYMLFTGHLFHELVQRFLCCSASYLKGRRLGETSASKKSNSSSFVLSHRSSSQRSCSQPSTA

Key:
[1] = target: vasopressin V1b receptor (Homo sapiens) (UniProt P47901)
[2] = target: vasopressin V1a receptor (Homo sapiens) (UniProt P37288)
[3] = target: oxytocin receptor (Homo sapiens) (UniProt P30559)

Substance | Ki [1] | Ki [2] | Ki [3]
conopressin-S (from UniProt P05487) | 8.3 nM | – | –
conopressin-T (from UniProt P0DL76) | – | 319 nM | 108 nM
